Measurements: published antibiotic growth screens (doi:10.1038/s41589-023-01349-8)
Some of the results follow.

test system: A. baumannii ATCC 17978; assay: relative growth (fraction of control); higher = less inhibition; conditions: 50 µM

| Compound | relative growth |
| --- | --- |
| CC(=O)N(C)C[C@@H]1Oc2cc(C#CCN(C)C)ccc2S(=O)(=O)N([C@H](C)CO)C[C@H]1C | 0.889 |
| CN(C)C1CN(S(=O)(=O)CCC2CC2)C1 | 1.05 |
| COc1cc(OC)c2c(c1Cl)OC1(C2=O)C(O)=CC(=O)CC1C (centres undefined) | 0.944 |
| OC[C@H]1O[C@H](C#Cc2ccccc2)C=C[C@@H]1O | 0.975 |
| O=C(C[C@@H]1C[C@H]2c3cc(NC(=O)c4cccnc4)ccc3O[C@H]2[C@H](CO)O1)NCc1cc(F)ccc1F | 0.764 |
| c1csc(-c2nc3ccc4ccccc4c3c3c2CCC3)c1 | 1.21 |
| COC1=C(OC)C(=O)C(C/C=C(\C)CC/C=C(\C)CC/C=C(\C)CC/C=C(/C)CC/C=C(\C)CC/C=C(\C)CC/C=C(\C)CC/C=C(\C)CC/C=C(\C)CCC=C(C)C)=C(C)C1=O | 1.02 |
| Cn1cnc(S(=O)(=O)N[C@H]2CC[C@H](CC(=O)N3CCN(c4ccccc4)CC3)O[C@H]2CO)c1 | 0.84 |
| C/C=C(/C(=C/C)c1ccc(O)cc1)c1ccc(O)cc1 | 0.898 |
| COCC(=O)N1C[C@@H](C)[C@@H](OC)CN(C)C(=O)c2ccc(NC(=O)Nc3cccc(F)c3)cc2OC[C@H]1C | 1.07 |
| C=C1SC(Nc2c(C)cccc2C)=NC12CCCCC2 | 0.837 |
| Cc1ccc(S(=O)(=O)n2cc([C@H]3CC(=O)N(C(=O)OCc4ccccc4)[C@H]3C(=O)Nc3cccc4cccnc34)c3ccccc32)cc1 | 1.18 |
| CC1(C)NCS[C@H]1C(=O)O | 1.16 |
| NCC[C@H]1CC[C@@H](NC(=O)c2ccccc2F)[C@@H](CO)O1 | 1.05 |
| O=C(C[C@H]1C=C[C@H](NS(=O)(=O)c2ccccc2F)[C@H](CO)O1)NCCCN1CCOCC1 | 0.929 |
| COc1ccc(-c2ccc3c(c2)O[C@@H](CN(C)CC2CCOCC2)[C@H](C)CN([C@@H](C)CO)S3(=O)=O)cc1 | 0.848 |
| N#Cc1ccc(N2CCCNCC2)nc1 | 0.959 |
| COC(=O)[C@H]1CCCC[C@@H]1CN | 1.07 |
| NCCCCCCNC(=O)[C@@H]1C[C@@H]2C(=O)N[C@@H](CCCCN)C(=O)N2[C@@H]1c1ccc(O)cc1 | 0.85 |
| COc1ccc(CSCCN)cc1Cl | 0.936 |
| O=C(C[C@@H]1CC[C@H]2NC[C@@H](O)COC[C@@H]2O1)NCCN1CCCC1 | 0.893 |

| Compound | relative growth |
| --- | --- |
| CC(=O)Oc1cccc(C)c1 [meta-CRESYL ACETATE] | 1.04 |
| COCC(=O)N(C)C[C@H]1Oc2cc(C#CCN(C)C)ccc2S(=O)(=O)N([C@@H](C)CO)C[C@@H]1C | 1.01 |
| O=C(N[C@H]1CC[C@H](CCNS(=O)(=O)c2ccc(F)cc2)O[C@H]1CO)C1CC1 | 0.936 |
| CC(=C\C(=O)O)/C=C(\C)C[C@H](C)CCCC[C@H](OC(=O)[C@H](CO)[C@H](O)CCCC[C@H](C)C/C(C)=C/C(C)=C/C(=O)O)[C@@H](CO)C(=O)O | 1.09 |
| CC(C)CC#Cc1ccc2c(c1)O[C@H](CN(C)Cc1cncnc1)[C@@H](C)CN([C@H](C)CO)S2(=O)=O | 0.871 |
| Cn1c(=O)c2c(nc(SCCNS(=O)(=O)c3ccccc3)n2C)n(C)c1=O | 0.971 |
| COc1cccc(S(=O)(=O)N(C)C[C@H]2Oc3ncc(C#CCN(C)C)cc3C(=O)N([C@@H](C)CO)C[C@H]2C)c1 | 1.27 |
| C=CCCCCCCCCC(=O)[O-].C=CCCCCCCCCC(=O)[O-].[Zn+2] | 1.01 |
| CCS(=O)(=O)NCC[C@H]1CC[C@H](NS(=O)(=O)c2ccccc2C)[C@H](CO)O1 | 1.12 |
| C[C@@H]1[C@@H](O)[C@@H](N(C)C)C[C@H]2COC[C@@H]21 | 1.03 |
| CCOC(=O)[C@H]1C/C=C/C[C@H](C(=O)OCC)C(=O)O[C@H]2[C@@H](OC)O[C@H](CO)[C@@H](OC(=O)Nc3ccc(OC)cc3)[C@@H]2OC1=O | 1.04 |
| CCNC(=O)/C=C/c1cccc(Br)c1 | 1.06 |
| COc1ccc(-c2c(C)oc3ccc(Cl)cc23)cc1 | 1.08 |
| O=C(O)CCNC(=O)c1cncc(O)c1 | 0.917 |
| O=C(C[C@@H]1C=C[C@@H](NC(=O)Cc2ccccn2)[C@@H](CO)O1)NCCc1ccncc1 | 1.05 |
| O=C(C[C@@H]1CC=CC[C@@H](NC(=O)OCC2c3ccccc3-c3ccccc32)C(=O)OC[C@H](Cc2ccccc2)NC1=O)N[C@H](CO)Cc1ccccc1 | 1.15 |
| O=c1ccc2c[nH][nH]c-2c1 | 1.03 |
| CN(C)CCCOc1nn(Cc2ccccc2)c2ccccc12.Cl | 0.974 |
| O=c1[nH]ccn(-c2ccccc2)c1=O | 1.03 |
| Cc1cc(O)n(CCCO)c(=O)c1C#N | 1 |
| CN(C)CC(=O)N[C@H]1CC[C@@H](CC(=O)NCCN2CCCCC2)O[C@H]1CO | 0.9 |

| Compound | relative growth |
| --- | --- |
| CCOC(=O)Cn1c(=O)c2c(OC)ccnc2n(C)c1=O | 1.06 |
| COc1ccc(CCNC(=O)[C@@]2(Sc3ccc(C)cc3)CC(=O)N(Cc3cc(C(F)(F)F)cc(C(F)(F)F)c3)[C@@H]2c2ccc(CO)cc2)cc1 | 1.02 |
| CS(=O)(=O)CCOC(=O)C1=CC(c2ccc(CO)cc2)=C[C@@H](C2CC2)N(Cc2cc3c(cc2Br)OCO3)C=C1C(=O)OCCS(C)(=O)=O | 0.924 |
| C[C@H](O)C#Cc1ccc2c(c1)O[C@H](CN(C)C(=O)CN(C)C)[C@H](C)CN([C@H](C)CO)S2(=O)=O | 1.04 |
| COc1ccccc1N1C(N)=NC(N)=NC1(C)C | 0.91 |
| NC[C@@H]1O[C@H](O[C@@H]2[C@@H](CO)OC(O[C@@H]3[C@@H](O)[C@H](N)C[C@H](N)[C@H]3O[C@H]3O[C@H](CO)[C@@H](O)[C@H](O)[C@H]3N)[C@@H]2O)[C@H](N)[C@@H](O)[C@@H]1O.O=S(=O)(O)O (some centres undefined) | 0.153 |
| C=CCN1C(=O)[C@@]2(O[C@@H](CCO)[C@H]([Si](C)(C)c3ccc(OC)cc3)[C@H]2C)c2cc(N3C(=O)c4cccc5cccc3c45)ccc21 | 1.22 |
| CCN(CC)C(C)CN1c2ccccc2Sc2ccccc21.Cl (centres undefined) | 0.962 |
| CC1=C(C(=O)O)N2C(=O)[C@@H](NC(=O)C(N)c3ccccc3)[C@H]2SC1 (some centres undefined) | 0.894 |
| CNc1ccccc1C(=O)N1CCc2c([nH]c3ccccc23)C1=O | 1.01 |
| NCCCC(N)C(=O)O.NCCCC(N)C(=O)O.O=C(O)CCC(=O)C(=O)O | 1.11 |
| CN1CCN(C(=O)c2ccc(N)cc2)CC1 | 1.1 |
| CC(=O)OC1O[C@@H](c2ccoc2)[C@]2(C)CCC3[C@]4(C)C(C[C@H](OC(C)=O)C[C@@H]4OC(C)=O)C[C@H](OC(C)=O)[C@@]3(C)C23OC13 (some centres undefined) | 0.926 |
| COc1cccc(S(=O)(=O)N(C)C[C@H]2Oc3cc(C#CCC(C)C)ccc3S(=O)(=O)N([C@@H](C)CO)C[C@@H]2C)c1 | 1.21 |
| COc1cccc2ccc(Cl)nc12 | 0.932 |
| COC(=O)c1ccccc1S(=O)(=O)NC(=O)Nc1nc(C)c2c(n1)CCS(=O)(=O)C2 | 1.13 |
| COc1ccccc1OCC(O)COC(N)=O (centres undefined) | 0.979 |
| COc1cccc(CNC(=O)C[C@H]2C=C[C@@H](NC(=O)C3CCOCC3)[C@H](CO)O2)c1 | 1.11 |
| CC(=O)O[C@H]1CC[C@@]2(C)C(CC[C@]3(C)C2CC=C2C4CC(C)(C)CC[C@]4(C)CC[C@]23C)C1(C)C (stereo partly drawn) [beta-AMYRIN ACETATE] | 1.15 |
| CC(C)(C)C(=O)C[C@@H](Nc1ccccc1)c1ccc(Cl)cc1 | 1.1 |
| O=C(NO)c1cn(-c2cccc(C(=O)N3CCC4(CC3)C(=O)NCN4c3ccccc3)c2)nn1 | 0.131 |

| Compound | relative growth |
| --- | --- |
| O=C(Cc1ccncc1)NCC[C@@H]1CC[C@H](NC(=O)C2CCOCC2)[C@@H](CO)O1 | 1.05 |
| Cc1ccc(-c2ccc3c(c2)O[C@@H](CN(C)C(=O)CN(C)C)[C@@H](C)CN([C@H](C)CO)S3(=O)=O)cc1 | 0.919 |
| CCOc1nc2cccc(C(=O)OCc3oc(=O)oc3C)c2n1Cc1ccc(-c2ccccc2-c2noc([O-])n2)cc1.[K+] | 1.1 |
| C[C@H](CO)N1C[C@H](C)[C@@H](CN(C)C(=O)c2cnccn2)Oc2cc(C#CCC3CCCC3)ccc2S1(=O)=O | 0.807 |
| C=C1[C@@H]2[C@H]3OC(=O)[C@@H](C)[C@@H]3[C@@H](O[C@@H]3O[C@H](CO)[C@@H](O)[C@H](O)[C@H]3O)CC(=C)[C@@H]2C[C@@H]1O | 1.06 |
| CCCSc1ccc2nc(NC(=O)OC)[nH]c2c1 | 1.41 |
| CC(c1nc(=O)[nH][nH]1)N1CCOC(O[C@H](C)c2cc(C(F)(F)F)cc(C(F)(F)F)c2)C1c1ccc(F)cc1 (some centres undefined) | 0.716 |
| CC(=O)Nc1cc2c(cc1N)OCCO2 | 0.998 |
| COc1ccccc1S(=O)(=O)N[C@H]1CC[C@@H](CCNC(=O)C2CC2)O[C@H]1CO | 0.975 |
| CC(=O)NCCCC[C@@H]1NC(=O)[C@@H]2C[C@H](C(=O)NCCCCCCN)[C@H](c3cccc(OCCO)c3)N2C1=O | 1.08 |
| C=C(C)c1c2c(c(Cl)c3ccccc13)C[N+](CC)(CC)C2 | 0.994 |
| O=C(C[C@H]1CC[C@H]2[C@@H](COC[C@H](O)CN2C(=O)c2ccccc2F)O1)N1CCN(c2ccccc2)CC1 | 1 |
| CN(C/C=C/c1ccccc1)Cc1cccc2ccccc12.Cl | 0.919 |
| Cn1c(=O)c2c(ncn2CC(=O)N2CCN(C(=O)c3ccco3)CC2)n(C)c1=O | 1.08 |
| CC(C)C#Cc1ccc2c(c1)O[C@H](CN(C)C(=O)c1cccc(F)c1)[C@H](C)CN([C@H](C)CO)S2(=O)=O | 0.942 |
| O=S(=O)(NCC[C@@H]1CC[C@H](NS(=O)(=O)c2cccc(Cl)c2)[C@H](CO)O1)c1cccc(F)c1 | 0.984 |
| Cl.NCCc1ccc(O)c(O)c1 | 1.09 |
| CN(C)CCOc1ccc(C#N)cn1 | 1.04 |
| NNC(=S)NCc1ccc(F)cc1 | 1.06 |
| C[C@H](CCC(=O)O)[C@H]1CCC2C3C(CC[C@@]21C)[C@@]1(C)CC[C@@H](O)C[C@H]1C[C@@H]3O (some centres undefined) | 0.958 |
| Cc1ccc(N(CC2=NCCN2)c2cccc(O)c2)cc1.Cl | 0.968 |
